Results from patent US9567367B2, “Synthetic peptides for treatment of bacterial infections” (priority 2012, dated 2017).
Where two headings read alike, the source gives them in different places.

Key:
[1] = mouse, in vivo, iv, 5 mg/kg
[2] = pig, in vivo, iv, 5 mg/kg
[3] = human, in vivo
[4] = in vivo
S. pyogenes = settings: mouse, in vivo
[5] = mouse, in vivo, 5 mg/kg
[6] = pig, in vivo, 5 mg/kg
[7] = human, in vivo; remark: listed apart in the source
in vivo [8] = settings: mouse, iv, 5 mg/kg
in vivo [9] = settings: pig, iv, 5 mg/kg
clinical = settings: human, in vivo, iv, 0.45 mg/kg

Structure (SMILES): CSCC[C@H](NC(=O)[C@@H]1CCCN1C(=O)[C@H](CO)NC(=O)[C@@H](C)N)C(=O)N[C@@H](CC(C)C)C(=O)N[C@H](C(=O)N[C@@H](C)C(=O)N[C@@H](Cc1ccc(O)cc1)C(=O)N[C@@H](CC(=O)O)C(=O)N[C@H](C)C(=O)O)C(C)C [D-Ala-p2TA, (D-A)SPMLVAYD(D-A)]
- AUC [1]: 1380 ng·h/mL
- Cmax [1]: 21700 ng/mL
- clearance [1]: 60.4 mL/min/kg
- half-life [1]: 2.65 min
- AUC [2]: 100 ng·h/mL
- Cmax [2]: 1750 ng/mL
- clearance [2]: 829 mL/min/kg
- half-life [2]: 1.3 min
- Vd [3]: ~0.2 L/kg
- AUC ([3]; iv, 0.45 mg/kg): 119 ng·h/mL
- Cmax ([3]; iv, 0.45 mg/kg): 700 ng/mL
- clearance ([3]; iv, 0.45 mg/kg): 69 mL/min/kg
- half-life ([3]; iv, 0.45 mg/kg): 1.83 min
- half-life [4]: 1 to 2.6 min
- kidney and liver functions, treated vs untreated infected mice (S. pyogenes): no observable differences or abnormalities
- toxic effects [5]: showed no toxic effects
- toxic effects [6]: showed no toxic effects
- systemic exposure as measured by Cmax and AUC vs dose [7]: appears to be dose proportional
- T1/2 in plasma, all cohorts ([7]; iv): a little over one minute
- Vd (in vivo [8]): 0.231 L/kg
- Vd (in vivo [9]): 1.38 L/kg
- Vd (clinical): 0.191 L/kg
